This is an account of results in PMC11642044 (International Journal of Molecular Sciences, 2024).

Protein sequences, listed by entry. Tags and fused reporters are not part of them.
UniProt P32299, whole entry: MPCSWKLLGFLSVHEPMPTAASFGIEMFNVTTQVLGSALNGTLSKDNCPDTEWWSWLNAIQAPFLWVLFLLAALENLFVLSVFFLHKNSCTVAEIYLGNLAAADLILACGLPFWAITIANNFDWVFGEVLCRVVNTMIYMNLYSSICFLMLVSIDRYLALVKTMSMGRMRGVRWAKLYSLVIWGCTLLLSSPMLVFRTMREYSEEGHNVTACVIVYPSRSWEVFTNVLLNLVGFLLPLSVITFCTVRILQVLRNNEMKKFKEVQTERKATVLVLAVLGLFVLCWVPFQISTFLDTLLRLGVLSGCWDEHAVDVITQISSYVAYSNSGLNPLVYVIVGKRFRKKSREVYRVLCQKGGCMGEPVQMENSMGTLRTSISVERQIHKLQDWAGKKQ
UniProt P30411, whole entry: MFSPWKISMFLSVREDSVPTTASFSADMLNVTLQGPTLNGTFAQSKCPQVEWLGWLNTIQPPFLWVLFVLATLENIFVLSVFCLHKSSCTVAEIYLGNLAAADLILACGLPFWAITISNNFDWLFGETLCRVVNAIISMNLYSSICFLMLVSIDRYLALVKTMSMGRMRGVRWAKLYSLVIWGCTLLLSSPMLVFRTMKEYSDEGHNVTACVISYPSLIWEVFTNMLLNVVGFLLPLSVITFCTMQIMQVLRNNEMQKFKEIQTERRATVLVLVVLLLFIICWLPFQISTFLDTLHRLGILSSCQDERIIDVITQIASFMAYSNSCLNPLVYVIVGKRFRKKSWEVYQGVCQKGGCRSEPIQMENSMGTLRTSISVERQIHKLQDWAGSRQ

In experiment [1] the target is T1, bradykinin B2 receptor (Mus musculus, UniProt P32299).
T1 construct: Gq-coupled receptors (i.e., B2R) that are endogenously expressed in astrocytes; endogenous in cells; host or cells: primary mouse cortical astrocytes (neonatal P2)
The experiment is classed as cell-based. The note with it: primary astrocytes.

For experiment [2], the target named is bradykinin B2 receptor (Homo sapiens, UniProt P30411). Nature of the experiment: Bradykinin-induced Ca2+ mobilization via B2R (FLIPR), U87-MG. The class given is cell-based. Background: Calcium assays in cells follow changes in intracellular calcium, usually with a dye or a luminescent sensor.

Like-named read-outs stand apart in the source and are kept apart here.

In the case of HOE-140, the “effect on bradykinin-induced Ca2+ transient” value in experiment [1] (0.1 μM HOE-140) is reported as “no effect”; in experiment [1] (1 μM HOE-140), “no effect”; in experiment [1] (5 μM HOE-140), “suppressed”. In addition, the “effect on Ca2+ response, HOE alone” value is “did not affect the Ca^2+ response” in experiment [1] (no bradykinin) and “did not affect the Ca^2+ response” in experiment [2] (no bradykinin, U87-MG). Also, the “inhibition of bradykinin-stimulated Ca2+ response, concentration dependence” value in experiment [2] is listed as “dose-dependently inhibited”. The “inhibition of bradykinin-induced Ca2+ signals” value in experiment [2] (5 μM HOE-140, pre-treatment 15 min, bradykinin up to 1 μM, U87-MG) was “completely abolished the Ca^2+ signals”.
